According to PubChem BioAssay AID438 (Columbia University Molecular Screening Center, 2006):
Only a part is listed here, and it is no random draw. Calls of active or inactive are those of the source.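 How the source made its calls: active means inhibition above 20% together with a positive visual image hit; inconclusive means visual image hit but inhibition not above 20%; inactive means no visual image hit.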

Assay: inhibitors of TNFa-induced NFkB p65 translocation, primary screen, imaging, HUVEC, MLSMR starter and 10KST1 sets (AID 438);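 further: compound added about 3h40 before a 20 min TNFalpha stimulation; signal is the nuclear over cytoplasmic p65 intensity ratio per well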
Details: HUVEC TNFa-induced p65 nuclear translocation, at 2 µM, stronger effect = higher value, 0% TNFa-plus-vehicle, 100% no-TNFa wells
For `Cc1nn(-c2ccccc2)c2c1P(=O)(N1CCOCC1)N(C)C(c1ccccc1)=N2` (configuration not stated), the inhibition was inactive: 0.5%. In the case of `Cc1ccc(OCC(=O)OC2CN3CCC2CC3)cc1` (configuration not stated), the inhibition is reported as inactive: -3.8%. With `Cc1cccc(OCC(=O)OC2CN3CCC2CC3)c1` (configuration not stated) the inhibition was inactive: -1%. With `CCOP1(=S)c2c(C)nn(CCC#N)c2N=C(c2ccccc2F)N1C` (configuration not stated) the inhibition was inactive: -2.4%. For `O=C(COc1ccccc1)OC1CN2CCC1CC2` (configuration not stated), the inhibition was inactive: -0.6%. In the case of `COP1(=S)c2c(C)nn(CCC#N)c2N=C(c2ccc(F)cc2)N1C` (configuration not stated), the inhibition is reported as inactive: -3.4%. In the case of `O=P(Nc1nccs1)(c1ccccc1)c1ccccc1`, the inhibition is reported as inactive: 3.9%.
